# Measurements published in US5652366A, “DI (1R)-(-)camphosulfonic acid) salt, preparation thereof and use thereof” (Rhone-Poulenc Rorer Pharmaceuticals Inc., priority 1995, dated 1997).
# The chains behind the UniProt entries cited, without tags or fusion partners.
# UniProt P30543, whole entry: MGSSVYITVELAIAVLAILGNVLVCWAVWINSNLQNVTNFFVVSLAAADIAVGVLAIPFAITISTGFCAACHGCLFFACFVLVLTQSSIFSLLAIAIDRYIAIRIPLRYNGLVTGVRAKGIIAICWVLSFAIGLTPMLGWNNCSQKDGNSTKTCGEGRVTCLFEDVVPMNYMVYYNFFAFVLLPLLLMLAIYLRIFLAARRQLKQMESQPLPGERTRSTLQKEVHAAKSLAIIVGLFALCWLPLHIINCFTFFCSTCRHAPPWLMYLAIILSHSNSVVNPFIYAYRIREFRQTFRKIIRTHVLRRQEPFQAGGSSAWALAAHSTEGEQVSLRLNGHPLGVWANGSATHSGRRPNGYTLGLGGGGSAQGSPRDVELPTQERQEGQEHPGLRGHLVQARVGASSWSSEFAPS
# Target: A2 adenosine receptor (Rattus norvegicus, UniProt P30543)
# Experiment: biochemical
# Assay type: binding
compound,measurement,value
"C[C@H](Cc1ccccc1)Nc1ncnc2c1ncn2[C@@H]1O[C@H](CO)[C@@H](O)[C@H]1O [R-PIA, R-phenylisopropyladenosine, reference compound]",IC50,0.3 µM
